From PubChem BioAssay
B2AR arrestin – recruits beta-arrestin to the human beta2-adrenergic receptor; P07550; beta-arrestin recruitment to beta2AR, cell-based reporter; Potency, µM (titrated, usually from 46.1 µM), actives largely listed as activators; 0.02% of 330,000 active; AID 492947; further: nearly all actives have a fitted effect of over 65% in size
A549 tox-1 – A549 cytotoxicity, counter-screen for Nrf2 inhibitors; A549 ARE-Fluc cells, CellTiter-Fluor viability, 18-24 h; Potency, µM (titrated, usually from 46 µM), actives largely listed as inhibitors; 0.16% of 390,000 active; AID 504648
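A549 ARE_Fluc cells in 5% FBS OPTI-MEM were exposed to compounds in concentration-response for 18-24 h at 37 deg C. Viability was read by CellTiter-Fluor fluorescence (Ex 405/Em 525) after 30 min, before the luciferase read.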
Nrf2 inh – inhibitors of Nrf2 signaling. Potency, µM (doses to about 46 µM), usual class: inhibitors. 2.1% of 360,000 active. A549 ARE-Fluc reporter, luciferase luminescence, 18-24 h; further: nearly all actives have a fitted effect of over 60% in size
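Cells were seeded and rested 2 h, then exposed to compounds for 18-24 h. CellTiter-Fluor was read first as a viability measure. BugLite was added 15 min before the final luminescent read of ARE-luciferase activity in A549 cells.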
miR-21 reporter – miR-21 reporter, rising signal; HeLa miR-21 FLuc reporter, luciferase, 48 h; Potency, µM (top dose mostly 38.3 µM); 340,000 tested, under 10 active; active = well fitted rising curve with a large enough effect; inconclusive = small, poorly fitted or top-dose-only effect; inactive = no such curve, though single readings can be large or run the other way;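 further: miR-21 action dims this reporter so a rising signal means less miR-21 action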
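HeLa cells endogenously expressing miR-21, stably carrying CMV-driven firefly luciferase with a downstream miR-21 binding site, 2000 cells/well. Titrations up to approximately 40 uM, 48 hours; luciferase luminescence read.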
Nrf2 ARE act – activates Nrf2 signaling. 0.31% of 410,000 active. AREc32 ARE-luciferase reporter (MCF7-derived line), luminescence, 24 h. Potency, µM (doses to about 46.1 µM), usual class: activators. AID 624171; further: nearly all actives have a fitted effect of over 65% in size
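For detection, Steady-Glo was added and plates sat 30 min at RT; before that, AREc32_Fluc cells grown overnight in OPTI-MEM/5% FBS had been treated with 23 nL compound for 24 hr at 37 deg C.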
FLuc counter 3 – blocks purified firefly luciferase in Nrf2 counterscreen; shares compounds with Nrf2 inh; purified firefly luciferase, luminescence inhibition; Potency, µM (highest dose often 57.5 µM), usual class: inhibitors; 4% of 1,400 active; further: nearly all actives have a fitted effect of over 65% in size
A549 tox-2 – toxic to A549 ARE-Fluc cells in Nrf2 counterscreen; Potency, µM (top dose mostly 46.1 µM), hits mostly inhibitors; AID 720523; A549 ARE-Fluc cells, cytotoxicity counterscreen; 2% of 1,400 active; shares compounds with Nrf2 inh;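 further: cells exposed to compounds for 18 to 24 hours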
Nrf2 ARE inh – confirmation of Nrf2 inhibitors in A549 ARE reporter cells; AID 720524; A549 ARE-firefly luciferase reporter, luminescence; 74% of 1,400 active; Potency, µM (series often up to 46.1 µM), actives largely listed as inhibitors; shares compounds with Nrf2 inh; further: nearly all actives have a fitted effect of over 65% in size
Hits are given with their value; n = inactive; u = inconclusive; x = not tested or not shown. Sampled rows, rich in hits. Any-hit rate of the full collection: about 2.2%. Unless noted, the call rests on the fitted dose curve; in most records, active means well fitted curve in the direction sought with a large enough effect; inconclusive means small, poorly fitted or top-dose-only effect, or another doubt; inactive means no such curve, though single readings can be large; an effect the other way counts as inactive or inconclusive.

SMILES	B2AR arrestin	A549 tox-1	Nrf2 inh	miR-21 reporter	Nrf2 ARE act	FLuc counter 3	A549 tox-2	Nrf2 ARE inh
Oc1c(C(Nc2nccs2)c2ccc(C(F)(F)F)cc2)ccc2cccnc12 (centres undefined)	n	n	4.61µM	n	n	n	n	5.8µM
CCc1cc2c(-c3ccccc3)cc(=O)oc2c2c1OCN(Cc1ccc(F)cc1)C2	x	n	n	n	n	x	x	x
COc1cc(NC(=O)c2cccs2)c(OC)cc1NC(=O)CCC(=O)Nc1ccc2ncccc2c1	n	n	5.8µM	n	n	n	n	n
COC(=O)C1=C[C@@H](C(=O)OC)C2C3=C(C(=O)[C@@]2(C)NC(=O)c2ccccc2)[C@H](C)[C@@H]2C(=O)N(C)C(=O)[C@@H]2[C@@H]3C1 (some centres undefined)	x	n	n	x	x	x	x	x
CC(=O)c1ccc(C2CC34CNS(=O)(=O)C3CC2O4)cc1 (centres undefined)	x	n	n	x	x	x	x	x
c1csc(CNc2ncnc3sccc23)c1	x	n	5.8µM	x	n	n	n	7.31µM
Cc1ccc(-c2onc(C)c2C)cc1S(=O)(=O)N1c2ccccc2CC1C (centres undefined)	x	n	8.2µM	n	n	n	n	u
Cc1ccc(-c2onc(C)c2C)cc1S(=O)(=O)N1CCOc2ccccc21	n	n	u	n	n	x	x	x
Cc1ccc(CNc2c(C)c(C)nc3nncn23)cc1	x	n	3.66µM	n	n	n	n	4.11µM
O=C(Cn1c(=O)n(-c2ccccc2)c(=O)c2ccc(C(=O)NCc3ccc4c(c3)OCO4)cc21)Nc1ccc(Br)cc1F	x	n	n	n	n	x	x	x
CC(=O)Nc1sc2c(c1-c1nc3ccccc3s1)CCN(C(C)C)C2	n	n	6.51µM	u	n	n	n	6.51µM
O=C(NCC(c1ccco1)N1CCc2ccccc2C1)c1ccc(Cl)c([N+](=O)[O-])c1 (centres undefined)	n	n	n	x	n	x	x	x
O=C(NCC(c1ccco1)N1CCCC1)c1ccc(Cl)c(S(=O)(=O)N2CCc3ccccc32)c1 (centres undefined)	n	8.2µM	1.3µM	x	n	n	n	x
Fc1ccccc1N1CCN(c2ncnc3c2nc2n3CCCCC2)CC1	x	n	n	n	n	x	x	x
FC(F)(F)c1cccc(N2CCN(c3ncnc4c3nc3n4CCCC3)CC2)c1	x	n	1.64µM	n	n	n	n	2.06µM
Cc1noc2ncnc(N3CCN(c4cccc(C(F)(F)F)c4)CC3)c12	x	n	8.2µM	n	n	n	n	8.2µM
CC(C)(C)c1nc(N2CCN(C(=O)c3ccco3)CC2)c2nnn(Cc3ccccc3)c2n1	n	u	8.2µM	n	n	n	u	1.3µM
CCOc1ccc(S(=O)(=O)N(C(=O)c2ccncc2)c2ccc3oc(C)c(C(=O)OC)c3c2)cc1	x	u	0.651µM	u	n	n	n	n
CC(=O)c1c(C)oc2ccc(N(C(=O)c3ccncc3)S(=O)(=O)c3ccc(C)cc3C)cc12	x	n	u	u	n	x	x	x
CCc1ccc(S(=O)(=O)N(C(=O)c2ccncc2)c2ccc3oc(C)c(C(=O)OC)c3c2)cc1	x	n	6.51µM	n	n	n	n	10.3µM
COc1ccc(S(=O)(=O)N(C(=O)c2ccncc2)c2ccc3oc4c(c3c2)CCCC4)cc1	n	u	u	n	n	x	x	x
COc1ccc(S(=O)(=O)N(C(=O)c2ccncc2)c2ccc3oc(C)c(C(C)=O)c3c2)cc1	x	n	5.8µM	u	n	n	n	u
CCOC(=O)c1c(C)oc2ccc(N(C(=O)c3ccncc3)S(=O)(=O)c3ccc(F)cc3)cc12	x	n	u	n	n	x	x	x
COC(=O)c1c(C)oc2ccc(N(C(=O)c3ccncc3)S(=O)(=O)c3ccc(OC)cc3)cc12	x	u	0.82µM	n	n	n	n	14.6µM
